Target: T1, Myeloperoxidase (Homo sapiens) (UniProt P05164)
T1 sequence (whole entry): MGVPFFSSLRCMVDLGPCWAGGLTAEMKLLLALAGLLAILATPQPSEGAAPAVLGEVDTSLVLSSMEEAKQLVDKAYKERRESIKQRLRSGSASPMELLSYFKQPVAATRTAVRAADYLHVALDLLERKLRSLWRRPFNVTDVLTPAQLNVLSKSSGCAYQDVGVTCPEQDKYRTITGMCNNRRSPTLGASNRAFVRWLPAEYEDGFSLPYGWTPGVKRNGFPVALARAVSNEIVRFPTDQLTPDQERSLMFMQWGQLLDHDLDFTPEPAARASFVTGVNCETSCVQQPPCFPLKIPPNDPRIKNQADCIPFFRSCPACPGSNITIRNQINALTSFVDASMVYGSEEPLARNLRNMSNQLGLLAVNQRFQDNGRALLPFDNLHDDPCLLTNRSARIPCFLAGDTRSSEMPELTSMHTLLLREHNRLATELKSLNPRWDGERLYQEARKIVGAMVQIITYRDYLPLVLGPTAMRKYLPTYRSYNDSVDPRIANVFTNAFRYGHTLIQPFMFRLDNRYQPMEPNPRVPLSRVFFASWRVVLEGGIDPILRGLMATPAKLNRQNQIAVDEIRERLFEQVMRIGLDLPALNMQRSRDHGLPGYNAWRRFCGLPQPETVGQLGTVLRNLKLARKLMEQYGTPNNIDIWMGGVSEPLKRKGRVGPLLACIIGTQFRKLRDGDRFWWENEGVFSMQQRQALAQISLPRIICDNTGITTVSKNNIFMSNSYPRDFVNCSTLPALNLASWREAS
Assay: Inhibition of human MPO
Parameters: concentration or dose not given beside the values
Settings: concentration not given here

## NNc1ccc([N+](=O)[O-])cc1[N+](=O)[O-]
  inhibition: 61%

— ChEMBL document CHEMBL3875231, “From Dynamic Combinatorial Chemistry to in Vivo Evaluation of Reversible and Irreversible Myeloperoxidase Inhibitors” (ACS Med Chem Lett, 2017)
